# miR-122 sensor: miR-122 Renilla sensor signal increase in Huh7, primary screen, miR-122 inhibitor project, cell-based, single point, plate reader; Huh7 miR-122 Renilla luciferase sensor, 48 h; neutral wells = 0, positive control = 100; activation (reporter increase), % at 12.5 µM; hit rate 0.3% among 340,000; AID 602342, 2012;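 active = mean replicate activation score at least 90 and every replicate individually at or above 90; inconclusive = only one of the two criteria met; inactive = neither criterion met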;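 note: higher luciferase means less miR-122 activity so hits act as miR-122 inhibitors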
# Yeast UUG start: modulators of yeast start codon fidelity, primary screen, whole organism, S. cerevisiae, single point, plate reader; S. cerevisiae UUG-firefly luciferase reporter, luminescence/redox ratio; activity score, % at 18.7 µM; actives 0.13% (n = 350,000); AID 602363, 2012;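 active = replicate mean at a twofold rise or more, about +100% in these data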;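 also: firefly luciferase made from a UUG start codon reports start codon fidelity; reporter light over untreated wells divided by growth signal over untreated wells; some hits fall short of that in this replicate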
# MITF TRPM1 inh: inhibitors of MITF-dependent TRPM1 promoter reporter, primary screen, cell-based, SK-MEL-5, single point, luciferase | inhibition, % at 12.5 µM | SK-MEL-5 TRPM1 promoter luciferase, 24 h | hit rate 0.83% among 330,000;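 active = mean inhibition across replicates of 60% or more, whatever share of single replicates reaches that level; inconclusive = some that reach 60%, reason not given; inactive = mean inhibition across replicates below 60%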
# MITF TRPM1 HTS: activators of MITF-driven TRPM1 promoter reporter, primary screen, cell-based, SK-MEL-5, luciferase, single point; SK-MEL-5 TRPM1-promoter luciferase, 24 h; % of positive control, neutral wells = 0; activation, % at 12.5 µM; hit rate 0.75% among 300,000; AID 588334, 2011;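 active = mean activation of at least 80% with every replicate also reaching 80%; inconclusive = mean reaches 80% but some replicate falls short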;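 note: 0% = neutral control wells and 100% = parthenolide positive control wells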
# Wnt bcat act: Wnt/beta-catenin pathway activators, primary screen, cell-based, plate reader, single point. Wnt/beta-catenin reporter cell assay, activator. activation, % at 9.35 µM. hit rate 1.2% among 300,000; in the data active = activation above about 30%, passing the limit was not always enough; inconclusive = no clear call, values can overlap the other calls;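 note: 0% = neutral control wells and 100% = positive control wells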
# PGC1a acetyl inh: inhibitors of PGC1a acetylation signal, primary screen, cell-based, U2OS, AlphaScreen, inhibitor mode; AlphaScreen anti-acetyl-lysine; with virally co-expressed GCN5 acetyltransferase; inhibition, % at 15.6 µM; hit rate 0.17% among 350,000; AID 651687, 2012;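 active = every replicate shows inhibition of at least 40%; inconclusive = mean inhibition at least 40% but some replicate below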;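 note: 0% = neutral control wells and 100% = positive control wells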
# * = called active by the depositor; ? = inconclusive; . = no result; [ ] = remark or other dose. Only some compounds are listed: those with a hit (about 2.1% of all), similar ones and a draw of the others.
miR-122 sensor,Yeast UUG start,MITF TRPM1 inh,MITF TRPM1 HTS,Wnt bcat act,PGC1a acetyl inh,mol
.,.,66*,-67,2,.,O=C1Nc2ccc(Br)cc2/C1=C/C(=O)c1ccc2c(c1)OCO2
-2,-25,.,.,47*,-1,C/C(=N\NC(=O)c1ccccn1)c1ccc(Cl)cc1
-6,-31,-79,88*,24,8,C/C(=N/NC(=O)c1ccncc1)c1ccc(NC(=O)c2ccc(Cl)cc2Cl)cc1
.,-13,89*,-88,1,.,C/C(=N\NC(=O)c1cc(C)nc2ccccc12)c1ccccn1
-3[16.7 µM],15,.,.,.,-8,Cc1ccc(S(=O)(=O)N(C)C[C@H]2Oc3ccc(NC(=O)NC4CCCCC4)cc3CC(=O)N([C@@H](C)CO)C[C@H]2C)cc1
1[16.7 µM],9,.,.,.,-5,CN1C(=O)c2cc(NC(=O)C3CCOCC3)ccc2OC[C@H]2O[C@@H](CC(=O)NC3CCCC3)CC[C@@H]21
-6[16.7 µM],1,.,.,.,-13,COc1cccc(-c2ccc3c(c2)[C@@H]2[C@@H](CCN2C(=O)Cc2ccccc2)[C@H](CO)N3)c1
.,.,.,.,.,5,CO[C@@H]1CN(C)C(=O)c2cc(NS(=O)(=O)c3c(C)noc3C)ccc2OC[C@H](C)NC[C@@H]1C
9[16.7 µM],15,.,.,.,24,C[C@H]1CN([C@@H](C)CO)C(=O)c2cc(NS(=O)(=O)c3cn(C)cn3)ccc2O[C@@H]1CN(C)Cc1ccc(C(F)(F)F)cc1
6[16.7 µM],.,.,.,.,.,COCC(=O)N1[C@@H]2c3ccc(C4=CCCCC4)c(=O)n3C[C@@H]2[C@@H](CO)[C@@H]1C(=O)N1CCCCC1
-3,-5,88*,-87,-2,-8,CCCCCCCNC(=O)C1(CC2CC(c3ccc(Cl)cc3)=NO2)CCNCC1 (stereo not given)
-2,-1,99*,-99,-23,-1,CCCCCCCNC(=O)C1(CC2CC(c3cccc(Br)c3)=NO2)CCNCC1 (stereo not given)
1[16.7 µM],-8,.,.,.,-20,C[C@H](CO)N1C[C@H](C)[C@@H](CN(C)S(=O)(=O)c2ccc(F)cc2)OCCCC[C@H](C)Oc2ccc(NS(=O)(=O)c3cccs3)cc2C1=O
115*,-17,.,.,-11,-1,Cc1cc(C(=O)N2CCc3ccccc32)n(-c2ccccc2)n1
1[16.7 µM],-10,.,.,.,3,C[C@H](CO)N1C[C@H](C)[C@@H](CN(C)S(=O)(=O)c2cccs2)Oc2ccc(NC(=O)Cc3cn(C)c4ccccc34)cc2C1=O
-11[16.7 µM],.,.,.,.,-3,C[C@H](O)C#Cc1cnc2c(c1)C(=O)N([C@H](C)CO)C[C@@H](C)[C@H](CN(C)C(=O)Cc1ccncc1)O2
-9[16.7 µM],11,.,.,.,12,CCC(=O)N1C[C@H](C)[C@@H](OC)CN(C)C(=O)c2cc(NC(=O)c3ccccc3)ccc2OC[C@@H]1C
.,.,84*,-84,.,.,Cc1cc(C)cc(NC(=O)/C(C#N)=C/c2cn(CC(=O)NCc3ccco3)c3ccccc23)c1
-7,-59,61*,-60,6,-11,O=C(Nc1nc(-c2ccccn2)cs1)c1ccc([N+](=O)[O-])o1
.,.,79*,-78,-2,.,O=C(Nc1nc(-c2ccccn2)cs1)c1cc(Cl)ccc1[N+](=O)[O-]
5,-21,65*,-64,-1,43*,O=C(Nc1nc(-c2ccccn2)cs1)c1ccccc1-n1cnnn1
.,.,7,-7,-2,7,Cc1cc(C(=O)Nc2nc(-c3ccccn3)cs2)ccc1[N+](=O)[O-]
1[16.7 µM],.,.,.,.,-3,O=C(C[C@@H]1C[C@H]2c3cc(NC(=O)c4ccc5c(c4)OCO5)ccc3O[C@H]2[C@H](CO)O1)NCC(F)(F)F
-8[16.7 µM],.,.,.,.,5,CC(C)C(=O)Nc1ccc2c(c1)C(=O)N(C)[C@@H]1CC[C@H](CC(=O)NC3CCCC3)O[C@@H]1CO2
.,-11,.,.,.,-8,O=C(N[C@@H]1CC[C@H](CCn2cc(-c3ccccn3)nn2)O[C@H]1CO)c1cccnc1
25[16.7 µM],1,.,.,.,-4,COC(=O)C[C@H]1CC[C@H]2[C@@H](COc3ccc(NC(=O)Nc4ccccc4C)cc3C(=O)N2C)O1
.,-23,-19,21,40*,.,Cc1cc(SCC(=O)c2ccc(Cl)cc2)nc(=O)[nH]1
-2,-23,-73,82*,7,-5,COC(=O)c1ccc(COc2cc(C)ccc2C)o1
4,-14,-30,33,9,-2,CCc1nonc1NC(=O)c1oc2ccc(F)cc2c1C
-3,-4,-53,50,44*,6,CCc1ccc2oc(C(=O)Nc3nonc3C)c(C)c2c1

# Some of the entries so far, with each value named:
Cc1cc(C(=O)Nc2nc(-c3ccccn3)cs2)ccc1[N+](=O)[O-]
  miR-122 sensor: .
  Yeast UUG start: .
  MITF TRPM1 inh: 7
  MITF TRPM1 HTS: -7
  Wnt bcat act: -2
  PGC1a acetyl inh: 7

O=C(C[C@@H]1C[C@H]2c3cc(NC(=O)c4ccc5c(c4)OCO5)ccc3O[C@H]2[C@H](CO)O1)NCC(F)(F)F
  miR-122 sensor: 1[16.7 µM]
  Yeast UUG start: .
  MITF TRPM1 inh: .
  MITF TRPM1 HTS: .
  Wnt bcat act: .
  PGC1a acetyl inh: -3

# Next part:
miR-122 sensor,Yeast UUG start,MITF TRPM1 inh,MITF TRPM1 HTS,Wnt bcat act,PGC1a acetyl inh,mol
-5,-7,-117,120*,?,0,Cc1cc2oc(C(=O)Nc3nonc3C)c(C)c2cc1C
-6[16.7 µM],-12,.,.,.,-4,Cc1ccc(NC(=O)Nc2ccc3c(c2)C(=O)N(C)[C@H]2CC[C@H](CC(=O)O)O[C@H]2CO3)cc1
-3[16.7 µM],-10,.,.,.,-4,C[C@@H](O)C#Cc1cnc2c(c1)C(=O)N([C@@H](C)CO)C[C@H](C)[C@@H](CN(C)C(=O)Cc1ccccn1)O2
.,.,-94,94*,14,.,O=C(Nc1ccc(F)cc1)Nc1ccc(N2CCOCC2)c2nonc12
.,-14,.,.,.,2,CCCNC(=O)N1C[C@@H](C)[C@@H](OC)CN(C)C(=O)c2cc(NC(=O)CC)ccc2OC[C@H]1C
-22,0,86*,-86,.,-19,C=CC(=O)Nc1ccc(Nc2nc(NC3CCC(N(C)C)CC3)nc3c2ncn3C(C)C)cc1 (stereo not given)
-10,-21,5,0,-3,1,C=CCSc1nnc2c(n1)OC(c1cccnc1)N(C(C)=O)c1ccccc1-2 (stereo not given)
8,-18,-12,13,54*,0,C=CCSc1nnc2c(n1)OC(c1cccnc1)Nc1ccccc1-2 (stereo not given)
0,-3,3,-1,0,11,C=CCn1c(SCC(=O)c2[nH]c(C)c(C(C)=O)c2C)nnc1-c1ccncc1
.,.,105*,-104,-13,.,C=CCn1c(SCC(=O)c2[nH]c(C)c(C(=O)OC)c2C)nc2scc(-c3ccc(OC)c(OC)c3)c2c1=O
.,.,-129,147*,6,.,COc1ccc(-c2cc3ncc(-c4ccccc4)c(N)n3n2)cc1
.,-7,.,.,.,-3,O=C(NCC[C@@H]1CC[C@H](NS(=O)(=O)c2ccc(F)cc2)[C@@H](CO)O1)Nc1ccc(F)cc1
4,0,-42,.,31*,11,Cc1ccc(NC(=O)c2nnn(-c3cc(C)cc(C)c3)c2N)cc1
6,-11,-24,26,?,.,Cc1ccc(C(=O)Nc2ccc3c(c2)CCC3)cc1S(=O)(=O)N1CCOCC1

# Some of these compounds in order of their number in Wnt bcat act, falling.
miR-122 sensor,Yeast UUG start,MITF TRPM1 inh,MITF TRPM1 HTS,Wnt bcat act,PGC1a acetyl inh,mol
8,-18,-12,13,54*,0,C=CCSc1nnc2c(n1)OC(c1cccnc1)Nc1ccccc1-2 (stereo not given)
.,.,-129,147*,6,.,COc1ccc(-c2cc3ncc(-c4ccccc4)c(N)n3n2)cc1
0,-3,3,-1,0,11,C=CCn1c(SCC(=O)c2[nH]c(C)c(C(C)=O)c2C)nnc1-c1ccncc1
.,.,105*,-104,-13,.,C=CCn1c(SCC(=O)c2[nH]c(C)c(C(=O)OC)c2C)nc2scc(-c3ccc(OC)c(OC)c3)c2c1=O
